Data as given in ChEMBL document CHEMBL4765381, “Neuropeptide FF and Its Receptors: Therapeutic Applications and Ligand Development” (J Med Chem, 2020).

Chains of the proteins cited; added tags and fusions are not shown. Lines headed by an entry give the natural chain unless they say otherwise; changes in a name come on top.
UniProt Q9GZQ6: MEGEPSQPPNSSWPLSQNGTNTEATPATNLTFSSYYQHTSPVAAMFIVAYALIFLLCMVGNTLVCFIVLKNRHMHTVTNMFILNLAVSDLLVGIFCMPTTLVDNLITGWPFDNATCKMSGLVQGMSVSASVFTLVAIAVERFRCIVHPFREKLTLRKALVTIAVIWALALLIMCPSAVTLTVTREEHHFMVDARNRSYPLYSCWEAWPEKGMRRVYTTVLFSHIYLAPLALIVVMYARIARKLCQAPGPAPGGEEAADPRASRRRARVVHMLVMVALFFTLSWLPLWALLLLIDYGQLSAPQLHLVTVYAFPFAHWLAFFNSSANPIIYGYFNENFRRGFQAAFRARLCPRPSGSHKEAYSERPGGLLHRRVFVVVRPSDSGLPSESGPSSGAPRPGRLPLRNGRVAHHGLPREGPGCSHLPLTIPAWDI
UniProt Q9Y5X5: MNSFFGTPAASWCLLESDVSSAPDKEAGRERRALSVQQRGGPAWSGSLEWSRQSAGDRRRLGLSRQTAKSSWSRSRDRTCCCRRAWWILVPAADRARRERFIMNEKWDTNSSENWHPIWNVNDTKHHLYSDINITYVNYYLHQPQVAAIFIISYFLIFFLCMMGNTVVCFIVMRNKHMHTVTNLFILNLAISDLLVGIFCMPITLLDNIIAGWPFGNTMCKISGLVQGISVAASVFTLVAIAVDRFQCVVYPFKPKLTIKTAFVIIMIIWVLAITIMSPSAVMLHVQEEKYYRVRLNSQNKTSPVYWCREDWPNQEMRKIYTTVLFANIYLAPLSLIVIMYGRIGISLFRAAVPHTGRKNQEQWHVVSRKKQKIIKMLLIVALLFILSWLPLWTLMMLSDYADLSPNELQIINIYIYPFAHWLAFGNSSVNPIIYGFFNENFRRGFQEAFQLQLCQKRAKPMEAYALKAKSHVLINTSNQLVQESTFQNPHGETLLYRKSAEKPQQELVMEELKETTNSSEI

How the values were obtained:
[1] = biological target: T1, Neuropeptide FF receptor 1 (Homo sapiens, UniProt Q9GZQ6); test: Displacement of [125I]YVP from human NPFFR1 expressed in CHO cells by gamma-counter method; type: cell-based
[2] = biological target: T1, Neuropeptide FF receptor 1; test: Displacement of [125I]YVP from human NPFFR1 expressed in HEK293 cells by radioligand binding assay; type: cell-based
[3] = biological target: T2, Neuropeptide FF receptor 2 (Homo sapiens, UniProt Q9Y5X5); test: Agonist activity at NPFFR2 (unknown origin) expressed in HEK293T cells harboring EP2 incubated for 15 mins by cAMP assay relative to control; type: functional, cell-based
[4] = biological target: T2, Neuropeptide FF receptor 2; test: Agonist activity at NPFFR2 (unknown origin) expressed in mouse NIH3T3 cells by receptor selection and amplification technology assay relative to control; type: cell-based; conditions: filed as agonist
[5] = biological target: T2, Neuropeptide FF receptor 2; test: Agonist activity at NPFFR2 (unknown origin) expressed in HEK293T cells harboring EP2 incubated for 15 mins by cAMP assay; type: functional, cell-based
[6] = biological target: T2, Neuropeptide FF receptor 2; test: Agonist activity at NPFFR2 (unknown origin) expressed in mouse NIH3T3 cells by receptor selection and amplification technology assay; type: cell-based

CC(C)C[C@H](NC(=O)[C@H](CC(N)=O)NC(=O)[C@@H]1CCCN1C(=O)[C@@H](N)C(C)C)C(=O)N1CCC[C@H]1C(=O)N[C@@H](CCC(N)=O)C(=O)N[C@@H](CCCNC(=N)N)C(=O)N[C@@H](Cc1ccccc1)C(N)=O
Ki [1]: 0.59 nM | Ki [2]: 1.3 nM

N=C(N)N/N=C/c1ccc(Br)c(Br)c1
Efficacy ([3]; filed as agonist): 78% | Efficacy [4]: 87.6%

N=C(N)N/N=C/c1ccc(Cl)c(C(F)(F)F)c1
EC50 [5]: 3980 nM | EC50 [6]: 398 nM

N=C(N)N/N=C/c1ccc(Cl)c(Cl)c1
Efficacy [3]: 35% | Efficacy [4]: 52.2%
